# From patent publication US20100120039A1 (published 2010)
# “Also recorded” adds a separate entry of the source.
# System: MCF-7 WT cells
# Experiment: Anchorage-independent soft agar growth assay
# Format: cell-based, human
# Settings: herceptin 10 μg/ml, basal or with heregulin
substance,measurement,value
herceptin: humanized monoclonal antibody directed against the extracellular domain of HER2,anchorage-independent growth,had no effect; also recorded: did not affect
